# In patent publication US20120231013A1 (Amgen, published 2012):
# T1: recombinant human TIMP-3 (human, UniProt P35625 24-211)
# T1 sequence (looked up): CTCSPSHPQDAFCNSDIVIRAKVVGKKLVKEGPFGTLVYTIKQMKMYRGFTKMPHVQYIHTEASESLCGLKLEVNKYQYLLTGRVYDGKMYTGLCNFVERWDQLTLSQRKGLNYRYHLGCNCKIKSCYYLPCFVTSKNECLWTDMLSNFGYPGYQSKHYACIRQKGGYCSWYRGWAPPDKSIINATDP
# B1: LRP-1 peptide LA24 (peptide)
# chain: not shown
# notes: Tags implied (Ni-NTA, anti-HA detection), not described
# B2: LRP-1 peptide LA23-24 (peptide)
# chain: not shown
# notes: as for B1
# B3: LRP-1 peptide LA26-28 (peptide)
# chain: CEPYQFRCKNNRCVPGRWQCDYDNDCGDNSDEESCTPRPCSESEFSCANGRCIAGRWKCDGDHDCADGSDEKDCTPRCDMDQFQCKSGHCIPLRWRCDADADCMDGSDEEACGTGVRT
# B4: LRP-1 peptide LA3-5 (peptide)
# chain: CQPGEFACANSRCIQERWKCDGDNDCLDNSDEAPALCHQHTCPSDRFKCENNRCIPNRWLCDGDNDCGNSEDESNATCSARTCPPNQFSCASGRCIPISWTCDLDDDCGDRSDESASCAYPT
# notes: as for B1
# B5: LRP-1 peptide LA24-26 (peptide)
# chain: not shown
# notes: The end 3574 is inferred from the end of LA26
# B6: LRP-1 peptide LA4-5 (peptide)
# chain: CPSDRFKCENNRCIPNRWLCDGDNDCGNSEDESNATCSARTCPPNQFSCASGRCIPISWTCDLDDDCGDRSDESASCAYPT
# B7: LRP-1 peptide LA17 (peptide)
# chain: CGPSSFSCPGTHVCVPERWLCDGDKDCADGADESIAAGCLYNST
# notes: as for B1
# B8: LRP-1 peptide LA3 (peptide)
# chain: not shown
# B9: LRP-1 peptide LA23 (peptide)
# chain: CLPSQFKCTNTNRCIPGIFRCNGQDNCGDGEDERDCPEVT
# B10: LRP-1 peptide LA3-4 (peptide)
# chain: CQPGEFACANSRCIQERWKCDGDNDCLDNSDEAPALCHQHTCPSDRFKCENNRCIPNRWLCDGDNDCGNSEDESNAT
# notes: as for B1
# Target: T1, recombinant human TIMP-3
# Experiment: cell-based or functional assay
Binder,"% of the inhibitory activity of TIMP-3 + peptide compared to TIMP-3 alone, 400 nM","% of the inhibitory activity of TIMP-3 + peptide compared to TIMP-3 alone, 16 nM",also measured
B1,103%,,
B2,,106%,"% of the inhibitory activity of TIMP-3 + peptide compared to TIMP-3 alone, 80 nM: 103%"
B3,,,"% of the inhibitory activity of TIMP-3 + peptide compared to TIMP-3 alone, 2000 nM: 103%"
B4,103%,,
B5,,,"% of the inhibitory activity of TIMP-3 + peptide compared to TIMP-3 alone, 2000 nM: 103%"
B6,102%,102%,
B7,,103%,
B8,,103%,
B9,106%,,
B10,,,"% of the inhibitory activity of TIMP-3 + peptide compared to TIMP-3 alone, 80 nM: 102%"
